Test results: patent US12478601B2, “Dietary product devoid of at least two non essential amino acids” (CANCER RESEARCH TECHNOLOGY LIMITED, priority 2016, dated 2025)
Where a name gives a salt, the structure may show the parent alone.

Legend:
[1] = tested on: lymphoma (based on Eμ-Myc expression); details: 100 mg/kg/day, mice receiving the serine and glycine deficient diet
HCT116, DLD1 and SW480 = test: Synergy score screen: chemotherapeutic agents in low serine, glycine, cysteine medium, cell counts

Row | Structure (SMILES) | toxicity (symptoms resembling dyschezia) [1] | SYNERGY SCORE (HCT116, DLD1 and SW480)
1 | [H]/N=C(/N)N/C(=N/[H])NCCc1ccccc1 [phenformin] | significant toxicity | –
2 | CCCCCOC(=O)Nc1nc(=O)n([C@@H]2O[C@H](C)[C@@H](O)[C@H]2O)cc1F [Capecitabine] | – | 1.94
3 | CCC1=C[C@@H]2CN(C1)Cc1c([nH]c3ccccc13)[C@@](C(=O)OC)(c1cc3c(cc1OC)N(C)[C@H]1[C@@](O)(C(=O)OC)[C@H](OC(C)=O)[C@]4(CC)C=CCN5CC[C@]31[C@@H]54)C2 [Vinorelbine tartrate] | – | 3.96
4 | NCCCNCCSP(=O)(O)O [Amifostine] | – | 3.01
5 | C1CN1c1nc(N2CC2)nc(N2CC2)n1 [Triethylenemelamine] | – | 1.03
